Patent EP0698613B1, “Endothelin-antagonizing peptide” (KYOWA HAKKO KOGYO CO., Ltd., priority 1994, dated 1996)

Sequences of proteins named here, by UniProt entry; tags and fusion partners are left off. Residues count along the entry.
UniProt P21450, 21-427: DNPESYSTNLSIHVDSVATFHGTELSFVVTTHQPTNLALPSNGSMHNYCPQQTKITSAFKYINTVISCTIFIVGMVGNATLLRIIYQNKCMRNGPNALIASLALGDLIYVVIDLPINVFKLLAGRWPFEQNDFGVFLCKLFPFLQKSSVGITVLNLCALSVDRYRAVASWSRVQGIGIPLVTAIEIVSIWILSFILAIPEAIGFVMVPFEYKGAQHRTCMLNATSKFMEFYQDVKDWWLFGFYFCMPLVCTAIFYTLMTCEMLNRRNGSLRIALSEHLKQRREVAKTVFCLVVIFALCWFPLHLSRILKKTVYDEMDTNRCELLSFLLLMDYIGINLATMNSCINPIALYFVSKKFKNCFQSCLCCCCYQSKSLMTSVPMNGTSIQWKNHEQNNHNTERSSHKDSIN

Columns and labels:
endothelin receptor [1] = target: T1, endothelin receptor (Bos taurus, UniProt P28088); test: biochemical; type: binding, Bovine
T1 construct: the suspension was used as a membrane fraction liquid; from tissue; host or cells: bovine cerebellum membrane fraction
T1 sequence (P28088 27-441): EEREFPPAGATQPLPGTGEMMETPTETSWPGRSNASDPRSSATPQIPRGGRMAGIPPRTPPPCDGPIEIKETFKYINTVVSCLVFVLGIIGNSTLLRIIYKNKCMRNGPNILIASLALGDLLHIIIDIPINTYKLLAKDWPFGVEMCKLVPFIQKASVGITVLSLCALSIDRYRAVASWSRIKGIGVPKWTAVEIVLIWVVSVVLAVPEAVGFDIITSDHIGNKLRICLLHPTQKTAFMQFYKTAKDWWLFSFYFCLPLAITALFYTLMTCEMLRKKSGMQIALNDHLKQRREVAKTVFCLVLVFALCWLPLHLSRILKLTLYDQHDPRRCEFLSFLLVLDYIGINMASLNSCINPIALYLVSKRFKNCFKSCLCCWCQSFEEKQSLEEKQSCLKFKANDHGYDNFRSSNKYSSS
Description: (§1) The resulting solid substance was prepared as a suspension containing 2 mg/ml of protein, and the suspension was used as a membrane fraction liquid.

endothelin receptor [2] = target: endothelin receptor (Bos taurus, UniProt P21450); test: biochemical
Description: as §1

Q: Which results are given for `C[C@@H]1NC(=O)[C@H]([C@@H](C)O)NC(=O)CNC(=O)[C@H](Cc2c[nH]cn2)NC(=O)[C@H](Cc2c[nH]c3ccccc23)NC(=O)[C@H](CC(N)=O)NC(=O)CNC(=O)C[C@@H](C(=O)N[C@@H](Cc2c[nH]c3ccccc23)C(=O)N[C@@H](Cc2ccccc2)C(=O)N[C@@H](Cc2ccccc2)C(=O)N[C@@H](CC(N)=O)C(=O)N[C@@H](Cc2ccc(O)cc2)C(=O)N[C@@H](Cc2ccc(O)cc2)C(=O)NCCc2c[nH]c3ccccc23)NC(=O)[C@@H]2CCCN2C1=O` [(I-1)]?
A: IC50 (endothelin receptor [1]): 50 nM; IC50 (endothelin receptor [2]): 300 nM
